Source: ChEMBL document CHEMBL1156934, “Synthesis and SAR of thiazolidinedione derivatives as 15-PGDH inhibitors” (Bioorg Med Chem, 2010)

Target: T1, 15-hydroxyprostaglandin dehydrogenase [NAD(+)] (Homo sapiens, UniProt P15428)
T1 sequence (P15428 whole entry): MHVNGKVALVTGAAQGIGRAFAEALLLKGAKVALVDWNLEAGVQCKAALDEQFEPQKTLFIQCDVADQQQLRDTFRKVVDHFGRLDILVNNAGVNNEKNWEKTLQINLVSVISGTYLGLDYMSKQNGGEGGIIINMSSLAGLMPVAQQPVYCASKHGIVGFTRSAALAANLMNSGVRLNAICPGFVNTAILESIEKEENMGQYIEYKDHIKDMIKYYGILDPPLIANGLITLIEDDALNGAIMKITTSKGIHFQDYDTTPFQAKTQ
Assay: Inhibition of human 15PGDH expressed in Escherichia coli BL-21 by fluorescence spectrophotometry

pIC50: 5.59
Structure (SMILES): O=C1NC(=O)/C(=C/c2ccc(OCc3ccccn3)cc2)S1

pIC50: −log10 of the molar value.
